Measured values published in patent US20260176320A1, “MODULATORS OF G-PROTEIN COUPLED RECEPTORS” (priority 2018, published 2026).

Sequences of proteins named here, by UniProt entry; tags and fusion partners are left off. Residues count along the entry.
UniProt P43220, 24-463: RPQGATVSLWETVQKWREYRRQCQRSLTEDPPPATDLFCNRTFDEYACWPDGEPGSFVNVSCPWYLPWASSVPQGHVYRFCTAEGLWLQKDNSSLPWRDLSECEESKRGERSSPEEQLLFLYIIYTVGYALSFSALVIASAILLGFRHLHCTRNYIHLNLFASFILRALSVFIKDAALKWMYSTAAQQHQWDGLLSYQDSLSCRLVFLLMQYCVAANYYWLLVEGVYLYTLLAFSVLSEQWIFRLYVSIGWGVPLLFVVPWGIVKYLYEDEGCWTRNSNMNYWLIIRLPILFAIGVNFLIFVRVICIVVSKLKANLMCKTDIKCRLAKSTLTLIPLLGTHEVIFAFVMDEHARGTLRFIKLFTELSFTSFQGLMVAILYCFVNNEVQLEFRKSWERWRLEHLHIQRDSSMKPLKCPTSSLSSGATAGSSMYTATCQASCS

Columns and labels:
Assay type in all cases: cell-based
[1] = target: T1, GIP-R (Homo sapiens, UniProt P48546); test: HitHunter cAMP assay (GIP-R)
T1 sequence (P48546 22-466): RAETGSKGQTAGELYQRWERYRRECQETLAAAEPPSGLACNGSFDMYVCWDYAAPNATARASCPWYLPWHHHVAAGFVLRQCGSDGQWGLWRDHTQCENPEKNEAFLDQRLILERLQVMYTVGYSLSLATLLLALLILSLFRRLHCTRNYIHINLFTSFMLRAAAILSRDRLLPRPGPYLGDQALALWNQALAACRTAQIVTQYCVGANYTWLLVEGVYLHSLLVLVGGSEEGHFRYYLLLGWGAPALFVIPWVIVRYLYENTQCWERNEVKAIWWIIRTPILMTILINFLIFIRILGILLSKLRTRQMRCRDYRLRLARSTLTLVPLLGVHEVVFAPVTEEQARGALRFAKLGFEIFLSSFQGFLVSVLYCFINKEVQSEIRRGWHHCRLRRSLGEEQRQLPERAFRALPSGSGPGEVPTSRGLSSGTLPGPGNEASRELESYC
Procedure: (§1) Suspension cells were harvested and resuspended in 1×HBSS (+10 mM HEPES, 625 μM IBMX, 0.2% BSA) according to the following procedure: 5 μL of 2× cell suspension+1× antibody were added to each well, where the optimal cell density was 10,000 cells per well in a low volume 384-well plate. Agonist serial dilutions in a separate 384 well dilution plate in a 22-point series of 2× dilutions of agonist in DMSO were performed as follows. 80 μL of the highest concentration of Agonist/DMSO was added to well No. 1. 40 μL was removed from well No. 1 and added it to well No. 2, followed by gentle mixing. […] This process was repeated until well No. 22. Additional serial dilutions for additional agonists were set up in a similar manner. 50 nL of each 2× agonist serial dilution was added in duplicate to the designated agonist rows of the assay plate using the Labcyte ECHO. Assay plate was incubated for 30 minutes at room temperature. Following agonist incubation, 5 μL of cAMP Antibody Reagent was added to all wells. […] Plates were spun down briefly. Assay plate was incubated for 1 hour at room temperature in the dark for the immunocompetition reaction to occur. […] Plates were spun down briefly. Assay plate was incubated O/N at room temperature in the dark. Samples were read on Tecan i-control plate reader using luminescence mode with 300 ms integration time. Data analysis was performed using GraphPad Prism.

[2] = target: T2, GLP-1R (Homo sapiens, UniProt P43220); test: HitHunter cAMP assay (GLP-1R)
Procedure: as §1

[3] = target: T2, GLP-1R; test: PathHunter β-arrestin assay
Procedure: The effects of the chemical entities described herein on β-arrestin signaling and associated downstream processes (e.g., those delineated above) can be assessed using conventional methods, e.g., PathHunter β-arrestin Assay for determining β-arresting coupling (see Examples section). […] It has been shown that b-arrestin coupling is a key strep in receptor internalization and subsequent de-sensitization and attenuation of signaling.
5,000 cells were seeded in appropriate cell culture media per well in a low volume 384-well tissue culture plate. The assay plate was incubated with cells overnight at 37° C. and 5% CO2. The media was removed, and 5 μL of appropriate cell culture media containing 0.2% BSA was added. Agonist serial dilutions in a separate 384 well dilution plate in a 22-point series of 2× dilutions of agonist in DMSO were performed as follows. 80 μL of the highest concentration of Agonist/DMSO was added to well No. 1. 40 μL was removed from well No. 1, and added to well No. 2, followed by gentle mixing. […] This process was repeated until well No. 22. Additional serial dilutions for additional agonists were set up in a similar manner. 100 nL of each 2× agonist serial dilution was added in duplicate to the designated agonist rows of the assay plate using the Labcyte ECHO. […] Samples were read on Tecan i-control plate reader using luminescence mode with 100 ms integration time. […]

For `CCCCCCCCCCCCCCCC(=O)N[C@@H](CCC(=O)NCCCC[C@H](NC(=O)[C@H](CO)NC(=O)[C@@H]1CCCN1C(=O)[C@@H]1CCCN1C(=O)[C@@H]1CCCN1C(=O)[C@H](C)NC(=O)CNC(=O)[C@H](CO)NC(=O)[C@H](CO)NC(=O)[C@@H]1CCCN1C(=O)CNC(=O)CNC(=O)[C@H](CCCCN)NC(=O)[C@@H](NC(=O)[C@H](CC(C)C)NC(=O)[C@H](Cc1c[nH]c2ccccc12)NC(=O)[C@H](C)NC(=O)[C@@H](NC(=O)[C@H](Cc1ccccc1)NC(=O)[C@H](CCC(=O)O)NC(=O)[C@H](CCCCN)NC(=O)[C@H](C)NC(=O)[C@H](C)NC(=O)[C@H](CCC(N)=O)NC(=O)CNC(=O)[C@H](CCC(=O)O)NC(=O)[C@H](CC(C)C)NC(=O)[C@H](Cc1ccc(O)cc1)NC(=O)[C@H](CO)NC(=O)[C@H](CO)NC(=O)[C@@H](NC(=O)[C@H](CC(=O)O)NC(=O)[C@H](CO)NC(=O)[C@@H](NC(=O)[C@H](Cc1ccccc1)NC(=O)[C@@H](NC(=O)CNC(=O)[C@H](CCC(=O)O)NC(=O)CSCC(=O)NCCN1C(=O)CSC1=O)[C@@H](C)O)[C@@H](C)O)C(C)C)[C@@H](C)CC)C(C)C)C(N)=O)C(=O)O` [Compound 73], which EC50 ([1]; Table 3) is on record?
The EC50 was 10 to 100 nM.

And the Emax ([1]; Table 3)?
Its Emax is 78%.

And the EC50 ([1]; Table 3A)?
Its EC50 is 10 to 100 nM.

And the Emax ([1]; Table 3A)?
Its Emax is 78%.

What about the EC50 ([2]; Table 3) of the same compound?
The EC50 was 0.1 to 1 nM.

And the Emax ([2]; Table 3)?
The Emax was 93%.

And the EC50 ([2]; Table 3A)?
The EC50 was 0.1 to 1 nM.

What about the Emax ([2]; Table 3A) of the same compound?
The Emax was 93%.

And the EC50 [3]?
Its EC50 is > 1000 nM.
